Results published in US12419961B2, “Docetaxel-aconitic anhydride conjugate exhibiting anti-tumor activity without in vivo toxicity” (CNPharm Co., Ltd., priority 2021, dated 2025).
“Also recorded” adds a separate entry of the source.

Legend:
L929 = experiment: cell viability assay on L929 normal cell line; type: cell-based; settings: FIG. 5B; normal mouse fibroblast cell line
[1] = weight monitoring in mouse xenograft model; type: in vivo, BALB/c mice; settings: FIG. 6B, PANC-1 model, dose: docetaxel standard, 20 mg/kg
Protocol: FIGS. 6A and 6B show the anticancer efficacy result of the A3Tx in the animal experiment (i.e., the mouse xenograft model) in accordance with one implementation of the present disclosure. […] Normally, non-treated group is injected with saline (NaCl solution) in anti-cancer efficacy study.

docetaxel-aconitic anhydride conjugate [A3Tx]
cytotoxicity toward normal cell line L929 (L929): lower cytotoxicity; also recorded: low cytotoxicity | body weight loss [1]: no weight loss was observed; also recorded: no significant loss of body weight
